Tests used:
KATO III cells [1] = assay: Overall effect (cytotoxic effect x clonogenic effect); details: for overall effect (colonies count multiplying the cytotoxic effect): KATO III, 72 h
AGS cells [2] = assay: Cytotoxic effect by cell count after 72 h, with and without TTFields; details: Two-way ANOVA P<0.001
AGS cells [3] = assay: Overall effect (cytotoxic effect x clonogenic effect); details: 72 h
KATO III cells [4] = assay: Cytotoxic effect by cell count after 72 h, with and without TTFields; details: Two-way ANOVA

With `O=C1[O][Pt]2([NH][C@@H]3CCCC[C@H]3[NH]2)[O]C1=O` [Oxaliplatin] the “overall effect (colonies count multiplying the cytotoxic effect)” value (KATO III cells [1]; 50 nM, + TTFields 150 kHz 1.6 V/cm) was 28 % from control, the “overall effect (colonies count multiplying the cytotoxic effect)” value (KATO III cells [1]; 50 nM, no TTFields) was 75 % from control and the “overall effect (colonies count multiplying the cytotoxic effect)” value (KATO III cells [1]; 100 nM, + TTFields 150 kHz 1.6 V/cm) was 30 % from control. The “overall effect (colonies count multiplying the cytotoxic effect)” value (KATO III cells [1]; 100 nM, no TTFields) was 65 % from control, the “overall effect (colonies count multiplying the cytotoxic effect)” value (KATO III cells [1]; 200 nM, + TTFields 150 kHz 1.6 V/cm) was 16 % from control and the “overall effect (colonies count multiplying the cytotoxic effect)” value (KATO III cells [1]; 200 nM, no TTFields) was 52 % from control. For the same compound, the “overall effect (colonies count multiplying the cytotoxic effect)” value (KATO III cells [1]; 400 nM, + TTFields 150 kHz 1.6 V/cm) was 6 % from control, the “overall effect (colonies count multiplying the cytotoxic effect)” value (KATO III cells [1]; 400 nM, no TTFields) was 13 % from control and the “Mean of colonies count multiplying the cytotoxic effect to determine overall effect (% from control), Chemotherapy” value (KATO III cells [1]; chemotherapy alone, without TTFields, 72 h treatment, oxaliplatin 50 nM, 5-FU 1.5 uM, leucovorin 5 uM, FOLFOX = mix of all 3) was 61 % from control. The “Mean of colonies count multiplying the cytotoxic effect to determine overall effect (% from control), TTFields + Chemotherapy” value (KATO III cells [1]; chemotherapy with TTFields for 72 h, oxaliplatin 50 nM, 5-FU 1.5 uM, leucovorin 5 uM, FOLFOX = mix of all 3) was 17 % from control, the “cytotoxic effect of drug + TTFields compared to drug alone” value (AGS cells [2]) was “significantly higher” and the “overall effect (colonies count multiplying the cytotoxic effect)” value (AGS cells [3]; 25 nM, + TTFields 150 kHz 1.0 V/cm) was 41 % from control. The “overall effect (colonies count multiplying the cytotoxic effect)” value (AGS cells [3]; 25 nM, no TTFields) was 78 % from control, the “overall effect (colonies count multiplying the cytotoxic effect)” value (AGS cells [3]; 50 nM, + TTFields 150 kHz 1.0 V/cm) was 34 % from control and the “overall effect (colonies count multiplying the cytotoxic effect)” value (AGS cells [3]; 50 nM, no TTFields) was 73 % from control. The “overall effect (colonies count multiplying the cytotoxic effect)” value (AGS cells [3]; 100 nM, + TTFields 150 kHz 1.0 V/cm) was 26 % from control, the “overall effect (colonies count multiplying the cytotoxic effect)” value (AGS cells [3]; 100 nM, no TTFields) was 63 % from control and the “overall effect (colonies count multiplying the cytotoxic effect)” value (AGS cells [3]; 200 nM, + TTFields 150 kHz 1.0 V/cm) was 11 % from control. For the same compound, the “overall effect (colonies count multiplying the cytotoxic effect)” value (AGS cells [3]; 200 nM, no TTFields) was 35 % from control, the “overall effect (colonies count multiplying the cytotoxic effect)” value (AGS cells [3]; 400 nM, + TTFields 150 kHz 1.0 V/cm) was 3 % from control and the “overall effect (colonies count multiplying the cytotoxic effect)” value (AGS cells [3]; 400 nM, no TTFields) was 6 % from control. The “overall effect (colonies count multiplying the cytotoxic effect)” value (AGS cells [3]; FOLFOX experiment, 50 nM, + TTFields 150 kHz 1.0 V/cm) was 29 % from control, the “overall effect (colonies count multiplying the cytotoxic effect)” value (AGS cells [3]; FOLFOX experiment, 50 nM, no TTFields) was 68 % from control and the “cytotoxic effect of drug + TTFields compared to drug alone” value (KATO III cells [4]) was “significantly higher”.

Source: US20250082931A1, “Treating Gastric Cancer Using TTFields Combined with XELOX, FOLFOX or the Individual Constituents Thereof” (Novocure GmbH, priority 2019, published 2025)
